Source: PubChem (National Center for Advancing Translational Sciences (NCATS))
Shown are actives, neighbours in structure and some others; about 3.7% of the full set was active somewhere.
ClpP mod = qHTS Assay for Activators of ClpP; ATP-dependent Clp protease proteolytic subunit (Bacillus subtilis (strain 168)), P80244; purified B. subtilis ClpP, FRET peptide cleavage, 20 min; Potency, µM (titrated, usually from 57.5 µM), without a hit: at the top dose activity change, negative = active; actives 1.9% (n = 340,000); AID 651965, 2013; active means well fitted falling curve with a large enough effect; inconclusive means small, poorly fitted or top-dose-only effect; inactive means no such curve, though single readings can be large or run the other way; further: potency means the concentration at half of the fitted maximal effect; the source files actives as falling curves though it sought activators and does not explain the sign; nearly all actives have a fitted effect of over 65% in size
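FRET quenching reversal measured ClpP activation: 10 microg/mL B. subtilis ClpP at pH 8 with the FRET-FV decapeptide, read at 430 nm after 320 nm excitation. The 20-min minus 0-min signal was scaled between DMSO/no-enzyme wells and ADEP (5.8 microM final).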
Nrf2 block = Nrf2 pathway inhibition; A549 ARE-Fluc reporter, luciferase luminescence, 18-24 h; Potency, µM (doses to about 46 µM), for the others: at the top dose activity change, negative = inhibition, hits mostly inhibitors; actives 2.1% (n = 360,000); further: potency means the concentration at half of the fitted maximal effect; on the % scale 0 is the no-effect control and ±100 the full control effect; nearly all actives have a fitted effect of over 60% in size
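Cells were seeded and rested 2 h, then exposed to compounds for 18-24 h. CellTiter-Fluor was read first as a viability measure. BugLite was added 15 min before the final luminescent read of ARE-luciferase activity in A549 cells.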
Nrf2 ARE act = activators of Nrf2 (ARE) signaling. AREc32 ARE-luciferase reporter (MCF7-derived line), luminescence, 24 h. Potency, µM (series often up to 46.1 µM), without a hit: at the top dose activation, most hits filed as activators. actives 0.31% (n = 410,000). AID 624171; further: potency means the concentration at half of the fitted maximal effect; % of control where 0% means no effect; nearly all actives have a fitted effect of over 65% in size
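Luminescent ARE reporter assay in AREc32_Fluc cells: overnight plating at 37 deg C, 24 hr compound incubation, Steady-Glo added, 30 min RT before reading.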
TCR act = activates T cell receptor signaling; primary human leukocytes, anti-CD3, IL-2 HTRF, 48 h; Potency, µM (doses to about 9.22 µM), for inactives: at the top dose activation of IL-2 secretion, most hits filed as activators; 330,000 tested, under 10 active; AID 504894; further: % of control where 0% means no effect
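48 hr co-incubation of compounds, a-CD3 beads and primary human leukocytes; IL-2 quantified homogeneously by HTRF with anti-IL-2 K and d2 conjugates.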
miR-21 reporter = raises the signal of a miR-21 reporter | Potency, µM (doses to about 38.3 µM), for inactives: top-dose reporter change, positive = more light | HeLa miR-21 FLuc reporter, luciferase, 48 h | AID 2288 | 340,000 tested, under 10 active; active = well fitted rising curve with a large enough effect; inconclusive = small, poorly fitted or top-dose-only effect; inactive = no such curve, though single readings can be large or run the other way;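 also: % of control where 0% means no effect; miR-21 action dims this reporter so a rising signal means less miR-21 action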
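Using DMEM plus 10% FBS, HeLa miR-21-FLuc cells are incubated with test compounds (final up to about 40uM) for 48 hours; firefly luciferase signal is then imaged following reagent-mediated lysis.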
A549 tox = kills or reduces viability of A549 cells in Nrf2 counter-screen. A549 ARE-Fluc cells, CellTiter-Fluor viability, 18-24 h. AID 504648. Potency, µM (top dose mostly 46 µM), inactives show at the highest dose activity change, negative = cytotoxicity, actives largely listed as inhibitors. actives 0.16% (n = 390,000); further: potency means the concentration at half of the fitted maximal effect; on the % scale 0 is the no-effect control and ±100 the full control effect
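A549 ARE_Fluc cells in 5% FBS OPTI-MEM were exposed to compounds in concentration-response for 18-24 h at 37 deg C. Viability was read by CellTiter-Fluor fluorescence (Ex 405/Em 525) after 30 min, before the luciferase read.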
* marks the source's active call; other numbers are inactive results; ? = inconclusive; · = no result; [ ] = remark or other dose. Unless noted, the call rests on the fitted dose curve; in most records, active means well fitted curve in the direction sought with a large enough effect; inconclusive means small, poorly fitted or top-dose-only effect, or another doubt; inactive means no such curve, though single readings can be large; an effect the other way counts as inactive or inconclusive.

SMILES	ClpP mod	Nrf2 block	Nrf2 ARE act	TCR act	miR-21 reporter	A549 tox
CCN1CCN(C(=O)CS(=O)(=O)Cc2nc(-c3ccccc3C)oc2C)CC1	·	-7%	0%	2%	-6%	-1%
Cc1oc(-c2ccccc2F)nc1CS(=O)(=O)CC(=O)N1CCOCC1	-12%	-13%	-1%	-2%	-5%	7%
Cc1ccc(-c2nc(CS(=O)(=O)CC(=O)N3CC(C)CC(C)C3)c(C)o2)cc1 (configuration not stated)	?	21µM*	0%	-5%	9%	-9%
Cc1cccc(N2CCN(C(=O)CS(=O)(=O)Cc3nc(-c4ccccc4F)oc3C)CC2C)c1 (configuration not stated)	-3%	16µM*	0%	3%	22%	-9%
Cc1cccc(N2CCN(C(=O)CS(=O)(=O)Cc3nc(-c4ccccc4C)oc3C)CC2C)c1 (configuration not stated)	?	23µM*	0%	·	30%	-10%
Cc1ccc(S(=O)(=O)N(C)C[C@@H]2Oc3ncc(C#CCC(C)C)cc3C(=O)N([C@H](C)CO)C[C@H]2C)cc1	-4%	·	0%	·	·	·
CCNc1c([N+](=O)[O-])c(=O)n(CC)c2ccccc12	·	-30%	0%	8%	1%	-5%
CCn1c(=O)c([N+](=O)[O-])c(NCc2ccco2)c2ccccc21	-1%	-17%	8.9µM*	-1%	-2%	?
Brc1ccc(C=C2C=c3ccccc3=C2)cc1	0%	·	·	·	·	·
Cc1c(C(=O)Nc2ccccc2F)sc2ncn(CC(=O)N3CCCCC3)c(=O)c12	0%	3%	0%	5%	0%	1%
CCCCn1nnnc1C(c1ccccc1)N1CCN(c2c(Cl)cncc2Cl)CC1 (configuration not stated)	1%	·	0%	·	·	·
O=C(Nc1ccc2c(c1)OCCO2)c1c(Cl)cccc1Cl	0%	·	0%	·	·	·
O=C(Cn1cnc2ccccc21)Nc1ccc2c(c1)OCCCO2	0%	13µM*	0%	-1%	·	-15%
O=C(CSCc1c(Cl)cccc1Cl)Nc1ccc2c(c1)OCCO2	16µM*	15%	1%	-1%[46.1 µM]	-52%	-2%
C/C(=N\NC(=O)CSCc1ccc(Cl)cc1)c1ccc2c(c1)OCCO2	-3%	16µM*	0%	·	2%	-7%
O=C(CCl)Nc1ccc2c(c1)OCO2	·	-1%	14µM*	·	?	-3%
CC(C)CC(=O)Nc1ccc2c(c1)OCO2	·	?	4%	0%	-17%	0%
CCc1cccc(NC(=O)CSc2nnc(-c3cc4occc4n3C)n2-c2ccccc2C)c1	-12%	-23%	3%	·	14%	-12%
Cc1cc(C)c2c(=O)cc(C(=O)Nc3ccc(S(=O)(=O)Nc4onc(C)c4C)cc3)oc2c1	-1%	6%	3%	·	6%	-3%
Cc1ccc(Cl)cc1N1CCN(C(=O)CN2C(=O)COc3ccc(S(=O)(=O)N4CCC(C)CC4)cc32)CC1	-1%	-6%	-1%	·	4%	0%
Cc1cnc(C=O)c2cccc([N+](=O)[O-])c12	1%	·	5%	·	·	·
O=C(CCc1ccccc1)Nc1ccc2c(c1)OCCO2	28µM*	·	-1%	-4%	-27%	-4%
Cc1ccc(-c2csc(NC(=O)c3ccc(-c4ccccc4)cc3)n2)o1	-22%	2.9µM*	5%	1%	-2%	-13%
O=C(Nc1nc(-c2ccco2)cs1)c1ccccc1	-1%	·	?	2%	-16%	5%
CC(=O)Nc1ccc(C(=O)Nc2nc(-c3cccnc3)cs2)cc1	11µM*	5%	2%	0%	0%	0%
SMILES	ClpP mod	Nrf2 block	Nrf2 ARE act	TCR act	miR-21 reporter	A549 tox
CCOc1cccc2c1OC(c1cc(OC)c(OC)c(OC)c1)N1N=C(c3ccc(C)o3)CC21 (configuration not stated)	·	?	13µM*	2%[46.1 µM]	-46%	-9%
Cc1ccc(NC(=O)C(c2ccccc2)N2CCN(CC(=O)NC3CC3)CC2)cc1 (configuration not stated)	-2%	2%	-1%	2%	·	-1%
CCCCCCNc1nc(Cl)nc(NC(C)(C)CO)n1	·	10%	3%	-1%	-2%	8%
Cc1nc2nncn2c(NCc2ccc(F)cc2)c1C	-1%	8.2µM*	3%	·	22%	0%
Clc1ccc2oc(-c3ccccc3)cc(=NCCCN3CCOCC3)c2c1	·	24%	13µM*	-2%	-77%	8%
OCCCCCN=c1cc(-c2ccccc2)oc2ccc(Cl)cc12	-2%	?	29%	4%	0%	?
COc1cccc(-c2nnc3n(Cc4ccc(C)cc4)c(=O)c4ccccc4n23)c1O	0%	6%	0%	·	1%	-3%
Cc1cnc(-c2nnc(N(C)C(=O)C3CCOC3)s2)cn1 (configuration not stated)	28µM*	5%	-1%	0%	-27%	-2%
CC(C)(C)c1ccc(C(=O)Nc2ccc(CC(=O)O)cc2)o1	0%	3.7µM*	-2%	1%	?	1%
O=C(Nc1ccc2nc([C@@H]3O[C@H](CO)[C@@H](O)[C@H](O)[C@H]3O)[nH]c2c1)NC(c1ccccc1)c1ccccc1	4%	·	0%	·	·	·
N#Cc1c(NC2CCCCC2)nc(-c2ccco2)c2c1CCCC2	7.1µM*	·	0%	12%	-1%	3%
CC1(C)Cc2c(C#N)c(NCCO)nc(-c3ccco3)c2CO1	·	1%	7%	0%	-3%	2%
CC1(C)Cc2c(C#N)c(NCCN3CCOCC3)nc(-c3ccco3)c2CO1	32µM*	-37%	0%	5%	1%	·
N#Cc1c(NCCCO)nc(-c2ccco2)c2c1CCCC2	28µM*	·	16%	4%	-8%	11%
O=C(C[n+]1c2ccccc2cc2ccccc21)c1ccc(F)cc1	4%	·	·	·	·	·
CC(C)(CNC(=O)c1cccc(S(=O)(=O)Nc2ccc(Br)cc2)c1)N1CCOCC1	-1%	?	2%	1%	·	-25%
Nc1cccc[n+]1C(c1ccnc2ccccc12)[n+]1ccccc1N	-22%	·	·	·	·	·
CC(=O)c1ccccc1OCCCN1CCCCC1	-7%	·	4%	-7%	-15%	13%
CC(=O)c1ccccc1OCCOCCOCCOc1ccccc1C(C)=O	0.89µM*	-18%	0%	1%	-14%	0%
CC(C)OC(=O)NC(C)(C)COC(=O)Nc1cccc(Cl)c1	-4%	10µM*	2%	1%[46.1 µM]	-10%	-26%
CC(C)OC(=O)NCCOC(=O)Nc1cccc(Cl)c1	1%	-7%	0%	5%	-15%	0%
